# PubChem BioAssay AID652115 (Broad Institute, 2013)
# By UniProt entry, the sequences of proteins in these tests, tags left out.
# UniProt Q9NXA8, whole entry: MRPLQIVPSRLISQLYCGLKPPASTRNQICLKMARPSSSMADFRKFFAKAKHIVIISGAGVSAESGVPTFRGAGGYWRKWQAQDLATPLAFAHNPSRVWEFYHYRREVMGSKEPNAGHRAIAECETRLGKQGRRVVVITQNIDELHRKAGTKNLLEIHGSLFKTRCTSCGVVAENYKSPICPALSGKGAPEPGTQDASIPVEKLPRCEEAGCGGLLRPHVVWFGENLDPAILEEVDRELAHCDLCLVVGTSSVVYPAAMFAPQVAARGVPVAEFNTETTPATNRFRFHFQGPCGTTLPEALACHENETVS
# Only a part is listed here, and it is no random draw. Activity calls are given as the source filed them. Cut-off read from the data, not from the text of the source: active = inhibition above about 15%; inconclusive = no clear call, values can overlap the other calls; inactive = below that.
# Molecular target: NAD-dependent protein deacylase sirtuin-5, mitochondrial (Homo sapiens) (UniProt Q9NXA8)
# Assay: blockers of sirtuin-5 deacylase activity – biochemical, fluorescence imaging, single point, set 5, primary screen (AID 652115)
# Settings: Purified SirT5, succinyl-peptide AMC, trypsin-coupled fluorescence; at 15 µM; hits give high values
row,SMILES,inhibition
1,Cc1cccc(NC2(C#N)CCN(Cc3ccccc3)CC2)c1,inactive: -3.77%
2,CSc1ccccc1C(=O)NCC1(N2CCCCC2)CCCCC1,inactive: -1.9%
3,COc1ccc(C(=O)NCC2(N3CCCCC3)CCCCC2)c(OC)c1OC,inactive: 0.314%
4,CC(C)(C)OC(=O)N1CCC(N(C(=O)c2ccccc2)c2ccc(F)cc2)CC1,inactive: -0.533%
5,CCC(c1nnnn1C1CCCC1)N1CCC(n2c(=O)[nH]c3ccccc32)CC1 (stereo not drawn),inactive: -0.328%
6,COc1ccc(C(=O)NCC2(N3CCCCC3)CCCCC2)cc1,inactive: -6.79%
7,CCCCn1nnnc1C(CC)N1CCC(n2c(=O)[nH]c3ccccc32)CC1 (stereo not drawn),inactive: -0.422%
8,O=C(NCC1(N2CCCCC2)CCCCC1)c1cccs1,inactive: -1.35%
9,CCCCn1nnnc1C(c1cccs1)N1CCC(n2c(=O)[nH]c3ccccc32)CC1 (stereo not drawn),inactive: 0.81%
10,O=C(NCC1(N2CCCCC2)CCCCC1)c1ccc(=O)[nH]c1,inactive: -2.97%
11,COc1ccc(Cl)cc1C(=O)NCC1(N2CCOCC2)CCCCC1,inactive: -4.83%
12,N#CC1(Nc2ccccc2)CCN(Cc2ccccc2)CC1,inactive: 0.456%
13,O=C(NCC1(N2CCCCC2)CCCCC1)c1ccc(Cl)s1,inactive: -0.184%
14,O=c1[nH]c2ccccc2n1C1CCN(C(c2cc3ccccc3o2)c2nnnn2C2CCCCC2)CC1 (stereo not drawn),inactive: -1.78%
15,O=C(OC1CN2CCC1CC2)C1c2ccccc2Oc2ccccc21 (stereo not drawn),inactive: -0.572%
16,CCCCn1nnnc1C(c1ccc(OC)cc1)N1CCC(n2c(=O)[nH]c3ccccc32)CC1 (stereo not drawn),inactive: -1.03%
17,CCOC(=O)N1CCC(Nc2ccc(OC)cc2)CC1,inactive: -11.9%
18,Cc1cc(C)cc(N(C(=O)c2ccccc2)C2CCN(C(=O)OC(C)(C)C)CC2)c1,inactive: 6.06%
19,O=C(NCC1(N2CCCCC2)CCCCC1)c1ccc(Cl)nc1,inactive: 3.62%
20,O=c1[nH]c2ccccc2n1C1CCN(C(c2ccccc2OC(F)(F)F)c2nnnn2C2CCCCC2)CC1 (stereo not drawn),inactive: -0.197%
21,CCOC(=O)N1CCC(Nc2ccc(F)cc2)CC1,inactive: 1.67%
22,CCCCOc1ccc(C(=O)NCC2(N3CCOCC3)CCCCC2)cc1,inactive: -0.567%

row,SMILES,inhibition
1,CCCCn1nnnc1C(c1cc2ccccc2o1)N1CCC(n2c(=O)[nH]c3ccccc32)CC1 (stereo not drawn),inactive: -2.94%
2,O=C(NCC1(N2CCCCC2)CCCCC1)c1ccc(F)cc1,inactive: 0.407%
3,O=C1CCN(Cc2ccccc2)CC1,inactive: -2%
4,CC(C)(C)n1nnnc1C(c1ccccc1)N1CCC(n2c(=O)[nH]c3ccccc32)CC1 (stereo not drawn),inactive: -2.71%
5,CCOc1ccc(C)cc1CN(CCCl)CCCl,inactive: -7.32%
6,COc1cc(C(=O)NCC2(N(C)C)CCCCC2)ccc1OC(F)F,inactive: -2.32%
7,O=c1[nH]c2ccccc2n1C1CCN(C(c2cccc3ccccc23)c2nnnn2C2CCCC2)CC1 (stereo not drawn),inactive: -2.02%
8,O=c1[nH]c2ccccc2n1C1CCN(C(c2ccccc2)c2nnnn2C2CCCCC2)CC1 (stereo not drawn),inactive: -0.8%
9,O=c1[nH]c2ccccc2n1C1CCN(C(c2ccccc2OC(F)(F)F)c2nnnn2C2CCCC2)CC1 (stereo not drawn),inactive: -0.999%
10,CSc1ccc(C(=O)NCC2(N3CCOCC3)CCCCC2)cc1,inactive: -0.497%
11,O=C(NCC1(N2CCCCC2)CCCCC1)c1cccc([N+](=O)[O-])c1,inactive: -3.39%
12,O=C(NCC1(N2CCCCC2)CCCCC1)c1ccc(OC(F)F)cc1,inactive: -2.15%
13,CC(C)(C)n1nnnc1C(c1ccccc1OC(F)(F)F)N1CCC(n2c(=O)[nH]c3ccccc32)CC1 (stereo not drawn),inactive: -0.429%
14,COc1cc(C(=O)NCC2(N3CCCCC3)CCCCC2)ccc1OC(F)F,inactive: 0.786%
15,COc1ccc(NC2CCN(C(=O)OC(C)(C)C)CC2)cc1,inactive: -0.271%
16,CC(C)c1ccc(C(=O)NCC2(N3CCOCC3)CCCCC2)cc1,inactive: -2.61%
17,CN1CCN(CCOC(=O)C(O)(c2ccccc2)c2ccccc2)CC1,inactive: -4.76%
18,CCCCn1nnnc1C(c1cccc2ccccc12)N1CCC(n2c(=O)[nH]c3ccccc32)CC1 (stereo not drawn),inactive: 1.11%
19,O=C(NCC1(N2CCCCC2)CCCCC1)c1cccc(C(F)(F)F)c1,inactive: -4.81%
20,CCC(c1nnnn1C(C)(C)C)N1CCC(n2c(=O)[nH]c3ccccc32)CC1 (stereo not drawn),inactive: 1.32%
21,O=C(NCC1(N2CCOCC2)CCCCC1)c1cc(F)c(F)cc1Cl,inactive: -3.1%
